This test concerns the target PmMOR (P. major multisubstrate oxido-reductase) (Plantago major, UniProt D6N9X1, V150M). In words: crystal structure. Particulars: ternary complex with NADP+, 1.46 Å; two citral conformations; geranial/neral mixture.

Sequences of proteins named here, by UniProt entry; tags and fusion partners are left off.
UniProt D6N9X1, entry or part of it V150M: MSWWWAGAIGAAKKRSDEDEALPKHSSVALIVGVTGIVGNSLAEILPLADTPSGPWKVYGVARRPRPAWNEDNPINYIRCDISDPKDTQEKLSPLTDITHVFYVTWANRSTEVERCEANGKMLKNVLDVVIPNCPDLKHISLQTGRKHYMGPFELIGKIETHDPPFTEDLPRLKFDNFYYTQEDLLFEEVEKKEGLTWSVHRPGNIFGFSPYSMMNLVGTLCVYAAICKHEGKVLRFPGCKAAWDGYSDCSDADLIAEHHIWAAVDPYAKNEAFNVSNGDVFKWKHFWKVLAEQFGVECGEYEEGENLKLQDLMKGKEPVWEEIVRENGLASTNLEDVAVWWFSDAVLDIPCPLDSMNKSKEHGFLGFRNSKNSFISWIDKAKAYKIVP

The structures appear in SMILES notation.

On to `CC(C)=CCC/C(C)=C/C=O` (mixture of isomers) [citral], for which the crystal structure is 5MLH, 5MLR, 5MLM and 6GSD for PmMOR/NADP^+/8-oxogeranial, PmMOR^V150M/NADP^+/citral.
